For the experiment, the target named is Acetylcholinesterase (Electrophorus electricus, UniProt O42275). The experiment is described as follows: Inhibition of electric eel AChE using acetylthiocholine iodide as substrate incubated for 5 mins followed by substrate addition measured every minute for 5 mins by Ellman's method.

Sequences of proteins named here, by UniProt entry; tags and fusion partners are left off. Residues count along the entry.
UniProt O42275, 24-633 limits assumed: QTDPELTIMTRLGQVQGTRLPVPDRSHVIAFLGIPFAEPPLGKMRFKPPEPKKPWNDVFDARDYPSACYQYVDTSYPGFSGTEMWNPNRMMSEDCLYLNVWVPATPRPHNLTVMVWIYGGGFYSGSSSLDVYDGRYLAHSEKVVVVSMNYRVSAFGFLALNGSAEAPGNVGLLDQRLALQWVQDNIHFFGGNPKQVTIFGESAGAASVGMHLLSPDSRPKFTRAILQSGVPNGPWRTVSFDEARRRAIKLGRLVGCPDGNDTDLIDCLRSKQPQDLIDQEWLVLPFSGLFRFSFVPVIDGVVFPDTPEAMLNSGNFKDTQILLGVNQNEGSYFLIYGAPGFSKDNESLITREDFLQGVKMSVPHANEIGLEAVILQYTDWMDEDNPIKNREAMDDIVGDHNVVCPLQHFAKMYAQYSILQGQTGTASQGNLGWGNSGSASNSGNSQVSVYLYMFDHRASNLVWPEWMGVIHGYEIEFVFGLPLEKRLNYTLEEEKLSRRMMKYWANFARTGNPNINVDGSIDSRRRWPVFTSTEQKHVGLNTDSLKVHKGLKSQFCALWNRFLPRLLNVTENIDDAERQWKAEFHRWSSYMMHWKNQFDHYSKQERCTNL

In turn, `COc1ccc(C(=O)NCCCCC/C=[N+](\[O-])C(C)(C)C)cc1` registered a 50% inhibitory concentration (IC50) of 26.1 µM.

The compound `COc1ccc(C(=O)NCCCCCCCCC/C=[N+](\[O-])C(C)(C)C)cc1OC` registered an IC50 of 12.6 µM. Next, `COc1cc(C(=O)NCCCCCCCCC/C=[N+](\[O-])C(C)(C)C)cc(OC)c1OC`: 11.8 µM; `COc1cccc(C(=O)NCCCCC/C=[N+](\[O-])C(C)(C)C)c1`: 27.2 µM; `COc1cc(C(=O)NCCCCCCC/C=[N+](\[O-])C(C)(C)C)cc(OC)c1OC`: 16.9 µM. For the compound `COc1ccc(C(=O)NCCCCCCC/C=[N+](\[O-])C(C)(C)C)cc1OC`, half-maximal inhibition (IC50) required 12.2 µM.

The compound `COc1ccc(C(=O)NCCCCC/C=[N+](\[O-])C(C)(C)C)cc1OC` registered an IC50 of 8.3 µM.

The values are drawn from ChEMBL document CHEMBL4393684, “Benzoic acid-derived nitrones: A new class of potential acetylcholinesterase inhibitors and neuroprotective agents” (Eur J Med Chem, 2019).
